Assay results: patent US7144865B2, “Compositions and methods for treating obesity” (The United States of America as represented by the …, priority 2003, dated 2006)

Test: Body weight and growth rate of G-K rats treated with zinc or zinc plus CHP (FIGS. 1, 2, 11-13)
Assay type: in vivo
Settings: 10-month old G-K rats; 10 mg/L zinc with and without 1.0 mg/L CHP for 3 weeks; FIG. 1
Description: I believe that CHP is effective in maintaining body weight control even after the cessation of the treatment.

## [Zn] [zinc]
  body weights compared to controls: significantly decreased
